Calls of active or inactive are those of the source. The rule behind the calls is not given here.

Protein sequences, listed by entry. Tags and fused reporters are not part of them. Lines headed by an entry give the natural chain unless they say otherwise; changes in a name come on top.
UniProt P27986: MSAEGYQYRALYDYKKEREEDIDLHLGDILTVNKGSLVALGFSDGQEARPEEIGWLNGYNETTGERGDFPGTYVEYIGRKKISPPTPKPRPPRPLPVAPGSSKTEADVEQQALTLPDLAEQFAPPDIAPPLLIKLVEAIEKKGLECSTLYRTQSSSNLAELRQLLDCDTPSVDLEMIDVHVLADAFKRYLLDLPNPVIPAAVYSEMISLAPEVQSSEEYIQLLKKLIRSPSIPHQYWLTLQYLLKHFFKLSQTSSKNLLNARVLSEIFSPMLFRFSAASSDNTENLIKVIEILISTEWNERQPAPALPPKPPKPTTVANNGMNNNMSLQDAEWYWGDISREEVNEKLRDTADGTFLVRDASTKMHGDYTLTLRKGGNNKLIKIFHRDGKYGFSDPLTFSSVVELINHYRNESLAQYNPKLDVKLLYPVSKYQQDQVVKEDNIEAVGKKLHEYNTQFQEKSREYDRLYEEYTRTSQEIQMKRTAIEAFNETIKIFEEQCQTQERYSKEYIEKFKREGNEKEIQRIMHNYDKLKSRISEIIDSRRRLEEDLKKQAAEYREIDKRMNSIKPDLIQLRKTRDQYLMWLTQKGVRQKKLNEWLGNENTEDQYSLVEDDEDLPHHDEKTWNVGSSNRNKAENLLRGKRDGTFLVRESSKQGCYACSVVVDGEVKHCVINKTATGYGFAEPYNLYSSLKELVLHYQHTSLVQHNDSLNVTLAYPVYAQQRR
UniProt P42338: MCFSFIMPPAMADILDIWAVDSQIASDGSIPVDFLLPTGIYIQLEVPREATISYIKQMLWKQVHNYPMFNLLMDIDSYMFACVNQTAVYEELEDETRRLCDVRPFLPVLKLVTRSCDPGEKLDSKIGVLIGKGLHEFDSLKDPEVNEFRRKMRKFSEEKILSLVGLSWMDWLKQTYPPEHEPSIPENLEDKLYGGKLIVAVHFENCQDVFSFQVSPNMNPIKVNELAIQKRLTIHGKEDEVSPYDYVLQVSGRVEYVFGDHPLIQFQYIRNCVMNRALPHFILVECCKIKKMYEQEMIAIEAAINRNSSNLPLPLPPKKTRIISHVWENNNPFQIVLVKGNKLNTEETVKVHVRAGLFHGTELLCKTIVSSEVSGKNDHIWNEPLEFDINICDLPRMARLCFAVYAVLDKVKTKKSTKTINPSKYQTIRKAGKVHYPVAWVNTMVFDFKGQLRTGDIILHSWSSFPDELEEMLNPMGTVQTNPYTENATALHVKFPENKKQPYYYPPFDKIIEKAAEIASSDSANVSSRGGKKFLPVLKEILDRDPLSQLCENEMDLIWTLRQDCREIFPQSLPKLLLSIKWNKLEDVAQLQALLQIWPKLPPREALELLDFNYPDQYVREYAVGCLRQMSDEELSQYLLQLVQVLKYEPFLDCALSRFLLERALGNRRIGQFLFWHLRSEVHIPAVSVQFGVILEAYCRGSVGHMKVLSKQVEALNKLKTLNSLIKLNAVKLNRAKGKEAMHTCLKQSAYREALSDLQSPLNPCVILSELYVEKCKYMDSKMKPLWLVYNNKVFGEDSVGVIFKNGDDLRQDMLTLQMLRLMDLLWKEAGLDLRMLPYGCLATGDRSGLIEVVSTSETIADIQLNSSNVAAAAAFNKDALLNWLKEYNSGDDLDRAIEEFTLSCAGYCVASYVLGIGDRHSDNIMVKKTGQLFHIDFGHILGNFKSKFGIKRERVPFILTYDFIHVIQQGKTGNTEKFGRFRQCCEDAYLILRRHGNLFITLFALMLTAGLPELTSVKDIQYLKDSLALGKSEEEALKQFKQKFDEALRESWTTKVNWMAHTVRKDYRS
UniProt P48736: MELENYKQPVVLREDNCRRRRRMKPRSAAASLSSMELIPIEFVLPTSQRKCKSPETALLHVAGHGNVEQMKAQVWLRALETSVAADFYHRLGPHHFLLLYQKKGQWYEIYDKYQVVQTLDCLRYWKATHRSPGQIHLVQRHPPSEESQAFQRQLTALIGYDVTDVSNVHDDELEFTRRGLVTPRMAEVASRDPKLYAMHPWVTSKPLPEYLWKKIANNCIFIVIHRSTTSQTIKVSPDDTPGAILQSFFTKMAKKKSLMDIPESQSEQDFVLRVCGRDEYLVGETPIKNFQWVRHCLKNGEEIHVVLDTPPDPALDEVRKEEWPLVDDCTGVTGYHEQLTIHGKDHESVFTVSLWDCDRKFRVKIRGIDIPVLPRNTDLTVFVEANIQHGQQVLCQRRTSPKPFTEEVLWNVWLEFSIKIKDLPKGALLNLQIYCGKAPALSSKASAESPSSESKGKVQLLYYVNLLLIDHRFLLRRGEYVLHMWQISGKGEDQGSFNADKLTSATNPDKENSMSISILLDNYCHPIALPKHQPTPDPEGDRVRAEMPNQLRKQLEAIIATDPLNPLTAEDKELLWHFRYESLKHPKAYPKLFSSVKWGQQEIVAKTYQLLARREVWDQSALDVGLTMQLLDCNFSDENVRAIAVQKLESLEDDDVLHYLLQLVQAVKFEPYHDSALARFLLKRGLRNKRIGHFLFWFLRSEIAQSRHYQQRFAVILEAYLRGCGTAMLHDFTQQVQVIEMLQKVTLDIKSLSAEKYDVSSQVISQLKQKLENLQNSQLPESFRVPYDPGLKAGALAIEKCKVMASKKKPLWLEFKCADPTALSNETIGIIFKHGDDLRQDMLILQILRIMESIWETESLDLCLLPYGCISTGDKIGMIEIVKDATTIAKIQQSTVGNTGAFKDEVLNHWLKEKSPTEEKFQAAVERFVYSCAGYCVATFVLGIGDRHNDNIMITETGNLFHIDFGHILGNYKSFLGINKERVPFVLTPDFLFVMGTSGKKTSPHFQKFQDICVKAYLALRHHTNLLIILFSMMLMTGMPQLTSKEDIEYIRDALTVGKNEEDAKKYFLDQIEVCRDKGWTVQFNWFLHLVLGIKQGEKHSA
UniProt O00459: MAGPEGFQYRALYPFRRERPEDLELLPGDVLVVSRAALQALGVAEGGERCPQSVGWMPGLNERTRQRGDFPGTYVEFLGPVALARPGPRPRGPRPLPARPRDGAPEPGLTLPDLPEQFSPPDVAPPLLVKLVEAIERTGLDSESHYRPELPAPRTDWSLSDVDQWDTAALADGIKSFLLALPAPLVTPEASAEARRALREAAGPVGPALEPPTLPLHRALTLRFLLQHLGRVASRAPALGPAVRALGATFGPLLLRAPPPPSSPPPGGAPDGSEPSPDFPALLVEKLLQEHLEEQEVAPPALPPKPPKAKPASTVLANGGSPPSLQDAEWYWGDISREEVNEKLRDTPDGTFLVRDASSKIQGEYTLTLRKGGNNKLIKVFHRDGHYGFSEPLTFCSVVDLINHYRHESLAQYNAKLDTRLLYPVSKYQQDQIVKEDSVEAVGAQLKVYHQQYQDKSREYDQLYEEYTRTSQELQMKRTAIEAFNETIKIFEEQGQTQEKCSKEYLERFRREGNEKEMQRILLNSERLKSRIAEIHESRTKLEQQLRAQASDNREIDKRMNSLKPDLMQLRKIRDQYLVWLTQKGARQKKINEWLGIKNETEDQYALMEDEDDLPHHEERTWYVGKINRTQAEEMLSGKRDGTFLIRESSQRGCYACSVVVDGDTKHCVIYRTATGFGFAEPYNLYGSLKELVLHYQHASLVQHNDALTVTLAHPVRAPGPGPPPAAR
UniProt O00329: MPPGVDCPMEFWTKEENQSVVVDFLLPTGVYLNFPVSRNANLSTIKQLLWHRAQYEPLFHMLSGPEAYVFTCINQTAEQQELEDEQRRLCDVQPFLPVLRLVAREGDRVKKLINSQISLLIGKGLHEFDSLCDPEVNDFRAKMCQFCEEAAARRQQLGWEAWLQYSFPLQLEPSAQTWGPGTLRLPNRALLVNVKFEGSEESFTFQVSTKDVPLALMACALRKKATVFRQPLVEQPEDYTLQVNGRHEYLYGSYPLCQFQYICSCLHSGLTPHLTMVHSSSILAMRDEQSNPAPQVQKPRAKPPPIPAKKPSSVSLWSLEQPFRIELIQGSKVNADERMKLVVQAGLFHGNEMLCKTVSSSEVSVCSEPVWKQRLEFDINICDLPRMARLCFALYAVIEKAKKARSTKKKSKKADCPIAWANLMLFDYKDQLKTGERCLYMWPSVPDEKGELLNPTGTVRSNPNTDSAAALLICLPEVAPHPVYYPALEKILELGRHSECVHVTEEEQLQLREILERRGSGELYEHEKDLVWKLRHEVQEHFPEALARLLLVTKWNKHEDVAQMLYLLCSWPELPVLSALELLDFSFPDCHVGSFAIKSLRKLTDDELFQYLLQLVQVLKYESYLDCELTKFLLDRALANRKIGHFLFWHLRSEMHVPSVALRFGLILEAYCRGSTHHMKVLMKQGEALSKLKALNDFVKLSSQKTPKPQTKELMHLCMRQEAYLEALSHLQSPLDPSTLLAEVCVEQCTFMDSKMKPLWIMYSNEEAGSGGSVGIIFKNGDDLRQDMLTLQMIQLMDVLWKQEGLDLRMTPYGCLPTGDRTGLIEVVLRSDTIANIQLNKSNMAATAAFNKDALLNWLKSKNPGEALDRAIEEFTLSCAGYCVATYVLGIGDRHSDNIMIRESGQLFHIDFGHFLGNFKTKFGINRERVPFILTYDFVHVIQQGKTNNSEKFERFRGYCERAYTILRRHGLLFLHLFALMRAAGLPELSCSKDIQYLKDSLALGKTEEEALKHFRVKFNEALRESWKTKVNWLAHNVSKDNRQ
UniProt Q8WYR1: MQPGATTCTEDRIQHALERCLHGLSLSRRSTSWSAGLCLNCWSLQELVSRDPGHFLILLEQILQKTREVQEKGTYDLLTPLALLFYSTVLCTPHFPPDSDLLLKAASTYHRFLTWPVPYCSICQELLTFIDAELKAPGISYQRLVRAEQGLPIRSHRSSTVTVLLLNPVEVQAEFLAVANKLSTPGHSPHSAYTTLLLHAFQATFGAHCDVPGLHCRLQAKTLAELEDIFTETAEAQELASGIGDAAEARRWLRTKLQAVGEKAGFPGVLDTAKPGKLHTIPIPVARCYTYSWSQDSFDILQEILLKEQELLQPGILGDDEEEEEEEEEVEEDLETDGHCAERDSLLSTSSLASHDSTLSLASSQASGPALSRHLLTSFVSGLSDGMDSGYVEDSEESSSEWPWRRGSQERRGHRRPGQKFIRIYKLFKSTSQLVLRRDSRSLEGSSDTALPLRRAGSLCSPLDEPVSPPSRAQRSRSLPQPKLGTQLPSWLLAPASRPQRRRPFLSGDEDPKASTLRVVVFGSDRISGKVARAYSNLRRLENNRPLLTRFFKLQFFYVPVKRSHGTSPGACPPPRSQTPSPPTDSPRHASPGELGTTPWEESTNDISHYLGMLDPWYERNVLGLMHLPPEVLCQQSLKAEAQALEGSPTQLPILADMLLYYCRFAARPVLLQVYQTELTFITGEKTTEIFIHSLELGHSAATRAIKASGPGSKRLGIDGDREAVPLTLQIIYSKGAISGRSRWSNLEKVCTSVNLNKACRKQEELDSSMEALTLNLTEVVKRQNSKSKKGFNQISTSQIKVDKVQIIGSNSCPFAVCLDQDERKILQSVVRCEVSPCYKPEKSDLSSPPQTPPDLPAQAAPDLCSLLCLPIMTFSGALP

This passage reports inhibition results from ChEMBL document CHEMBL3882389, “Phosphatidylinositol 3-Kinase Inhibitors for the Treatment of Lymphoproliferative Malignancies” (2014).

Assay [1] addresses T1, PI3-kinase class I (Homo sapiens) (UniProt P27986+P42338+P48736+P42336+O00459+O00329+Q8WYR1+Q92569). The assay can be described thus: Inhibition of PI3K (unknown origin) assessed as reduction in phosphorylation of pAKT. Format: protein-complex assay.
In assay [2] the target is T1, PI3-kinase class I (Homo sapiens). The assay can be described thus: Inhibition of PI3K (unknown origin) assessed as reduction in phosphorylation of pEBP1. It counts as protein-complex assay.

With `COc1ccc(Cl)c(Nc2nc3ccccc3nc2NS(=O)(=O)c2cccc(NC(=O)C(C)(C)N)c2)c1` [PILARALISIB], the inhibition entry in assay [1] and in assay [2] was “Active” each time.
